Test results published in ChEMBL document CHEMBL2346567, “Selective aminopeptidase-N (CD13) inhibitors with relevance to cancer chemotherapy” (Bioorg Med Chem, 2013).

Molecular target: T1, Aminopeptidase N (Mus musculus, UniProt P97449)
T1 sequence (P97449 whole entry): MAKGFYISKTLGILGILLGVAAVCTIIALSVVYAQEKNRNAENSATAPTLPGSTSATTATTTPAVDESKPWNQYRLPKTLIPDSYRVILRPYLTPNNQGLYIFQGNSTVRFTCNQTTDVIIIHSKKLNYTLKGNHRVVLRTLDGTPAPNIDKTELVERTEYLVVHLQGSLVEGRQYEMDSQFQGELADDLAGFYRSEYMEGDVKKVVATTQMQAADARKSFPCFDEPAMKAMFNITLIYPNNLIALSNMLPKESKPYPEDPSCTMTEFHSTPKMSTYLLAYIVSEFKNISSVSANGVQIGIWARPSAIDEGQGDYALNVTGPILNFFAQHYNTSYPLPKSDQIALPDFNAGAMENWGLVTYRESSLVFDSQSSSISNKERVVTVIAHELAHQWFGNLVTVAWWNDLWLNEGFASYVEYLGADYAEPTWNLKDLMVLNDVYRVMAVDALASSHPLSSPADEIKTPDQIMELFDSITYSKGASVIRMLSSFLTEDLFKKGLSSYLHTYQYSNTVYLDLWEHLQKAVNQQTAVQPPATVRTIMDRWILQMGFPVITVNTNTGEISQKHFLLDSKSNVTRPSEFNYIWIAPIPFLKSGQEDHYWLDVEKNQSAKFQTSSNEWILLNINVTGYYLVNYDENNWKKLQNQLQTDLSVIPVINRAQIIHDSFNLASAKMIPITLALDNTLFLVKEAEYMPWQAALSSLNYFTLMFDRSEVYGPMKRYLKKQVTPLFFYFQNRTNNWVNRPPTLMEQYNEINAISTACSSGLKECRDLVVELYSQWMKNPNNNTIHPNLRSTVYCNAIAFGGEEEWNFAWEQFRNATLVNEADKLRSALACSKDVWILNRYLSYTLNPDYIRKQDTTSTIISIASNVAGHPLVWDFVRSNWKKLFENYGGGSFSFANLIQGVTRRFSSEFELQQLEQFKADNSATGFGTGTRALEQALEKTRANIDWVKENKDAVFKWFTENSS
Test: Inhibition of mouse APN using L-leucine-p-nitroanilide as substrate measured every 10 mins for 2 hrs by spectrophotometric analysis

In the case of `NC1CCc2ccccc2CC1=O` (stereo unspecified), the Ki is reported as 2 µM.
